# Source: patent EP4825398A1, “PHARMACEUTICAL COMPOSITION CONTAINING PRMT5 INHIBITOR AND CDK4/6 INHIBITOR” (dated 2026)
# Experiments:
# [1] = system: LU99 MTAP (-/-) deleted cells; test: Combination test with Abemaciclib, CTG cell viability, 144 h; CI by Calcusyn; conditions: Abemaciclib 0.0 nM
# [2] = system: LU99 MTAP (-/-) deleted cells; test: Single-agent test, CTG cell viability, 144 h
Structure (SMILES),Inhibition Rate (%) ([1]; Compound C 0.49 nM),Inhibition Rate (%) ([1]; Compound C 1.95 nM),Inhibition Rate (%) ([1]; Compound C 7.81 nM),Inhibition Rate (%) ([1]; Compound C 31.3 nM),Inhibition Rate (%) ([1]; Compound C 125 nM),Inhibition Rate (%) ([1]; Compound C 500 nM),IC20 [2] [nM],IC50 [2] [nM],Max Inh% [2] [%]
C[C@H](c1ccc(C(F)(F)F)cn1)N(C(=O)c1cc2c(cc1F)nc(N)c1cncn12)C1CC1,3.6,5.6,25.7,55.3,73.4,79.2,3.64,13.4,82.4
CN(C(=O)c1ccc2nc(N)c3cncn3c2c1)[C@@H]1COc2cc(C(F)(F)F)ccc21,–,–,–,–,–,–,3.41,15.1,83.2
